Measured values as given in patent publication US9284333B2, “Fused pyrroledicarboxamides and their use as pharmaceuticals” (SANOFI, priority 2012, dated 2016).

Chains of the proteins cited; added tags and fusions are not shown. Lines headed by an entry give the natural chain unless they say otherwise; changes in a name come on top.
UniProt O14649: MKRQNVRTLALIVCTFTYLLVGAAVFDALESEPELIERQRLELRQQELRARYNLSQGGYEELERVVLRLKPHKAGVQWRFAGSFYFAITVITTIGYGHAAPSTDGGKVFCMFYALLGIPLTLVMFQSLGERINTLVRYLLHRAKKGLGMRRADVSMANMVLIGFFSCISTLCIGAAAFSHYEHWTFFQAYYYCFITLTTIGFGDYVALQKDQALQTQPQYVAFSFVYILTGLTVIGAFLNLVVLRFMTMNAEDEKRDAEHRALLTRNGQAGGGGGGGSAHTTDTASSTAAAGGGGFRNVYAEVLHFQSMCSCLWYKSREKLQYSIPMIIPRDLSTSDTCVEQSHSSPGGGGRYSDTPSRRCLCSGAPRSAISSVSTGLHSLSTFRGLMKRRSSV

Molecular target: Human TASK-1 channels (Homo sapiens (Human), UniProt O14649)
Test: Determination of the activity on the TASK-1 channel in Xenopus oocytes (two-microelectrode voltage clamp)
Type: cell-based
Settings: human TASK-1 expressed in Xenopus oocytes, room temperature; read-out: IC50 value for TASK-1 inhibition
Protocol: Determination of the activity on the TASK-1 channel in Xenopus oocytes
Human TASK-1 channels were expressed in Xenopus oocytes. For this purpose, oocytes were isolated from Xenopus laevis and defoliculated. Subsequently, TASK-1-encoding RNA synthesized in vitro was injected into the oocytes. After two days of TASK-1 protein expression, TASK-1 currents were measured by two-microelectrode voltage clamp. Data were acquired and analyzed using a TEC-10cx amplifier (NPI Electronic, Tamm, Germany) connected to an ITC-16 interface (Instrutech Corp., Long Island, USA) and Pulse software (HEKA Elektronik, Lambrecht, Germany). Oocytes were clamped to −90 mV and TASK-1 mediated currents were measured during 500 ms voltage pulses to 40 mV. Oocytes were continuously superfused with ND96 buffer containing 96 mM sodium chloride, 2 mM potassium chloride, 1.8 mM calcium chloride, 1 mM magnesium chloride, 5 mM 4-(2-hydroxyethyl)-piperazine-1-ethanesulfonic acid (HEPES; pH adjusted to 7.4 with sodium hydroxide). All experiments were performed at room temperature. Test compounds were consecutively added to the bath solution at rising concentrations. Compound effects were calculated as the percentage inhibition of TASK-1 control current before compound addition. IC50 values were obtained by fitting the data to the general dose-response equation.

IC50: 46 nM
Substance: 3,4-Dihydro-1H-pyrrolo[2,1-c][1,4]thiazine-6,8-dicarboxylic acid 8-{[(R)-1-(4-fluoro-phenyl)-ethyl]-amide} 6-[((R)-1-phenyl-propyl)-amide] [16kq]
